Source: patent US7928139B2 (Amgen Inc., priority 2006, dated 2011)

The chains behind the UniProt entries cited, without tags or fusion partners.
UniProt Q9GZT9, whole entry: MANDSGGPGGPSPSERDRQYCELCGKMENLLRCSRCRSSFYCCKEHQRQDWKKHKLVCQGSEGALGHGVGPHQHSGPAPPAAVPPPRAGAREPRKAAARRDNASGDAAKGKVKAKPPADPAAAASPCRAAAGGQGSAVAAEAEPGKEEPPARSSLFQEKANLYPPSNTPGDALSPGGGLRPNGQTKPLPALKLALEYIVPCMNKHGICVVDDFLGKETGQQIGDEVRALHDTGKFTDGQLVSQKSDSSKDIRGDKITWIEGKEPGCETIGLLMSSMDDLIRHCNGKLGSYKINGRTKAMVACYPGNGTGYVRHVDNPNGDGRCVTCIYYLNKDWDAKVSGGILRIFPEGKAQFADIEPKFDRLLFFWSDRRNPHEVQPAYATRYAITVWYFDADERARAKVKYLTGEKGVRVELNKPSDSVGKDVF

Biological target: HIF PHD2 (Homo sapiens, UniProt Q9GZT9)
Experiment: PHD2 inhibition assay (TR-FRET, VCB-Eu detection of hydroxylated P564-HIF1α peptide)
Details: read-out: PHD2 IC50, 2 nM PHD2, 100 nM P564-HIF1α peptide, 0.25 μM 2-oxoglutarate, 100 μM FeCl2, 2 mM ascorbic acid

Row | IC50 [nM] | Compound
1 | 500 to 1000 | CC1(C#N)C(=O)C(C(=O)CCC(=O)O)=C(O)c2cc(Cl)ccc21 (single isomer, unassigned)
2 | < 100 | CC1(C#N)C(=O)C(C(=O)NCC(=O)O)=C(O)c2cc(F)c(F)cc21 (single isomer, unassigned)
3 | < 100 | CC1(C#N)C(=O)C(C(=O)NCC(=O)O)=C(O)c2cc(F)ccc21 (single isomer, unassigned)
4 | < 100 | CC1(C#N)C(=O)C(C(=O)NCC(=O)O)=C(O)c2ccc(F)cc21 (single isomer, unassigned)
